Conditions: plasma, single dose of 4 sprays (10.8 mg THC and 10 mg CBD) oromucosal; for AUClast, Geometric LS Mean - Normal Renal Function / Cmax, Geometric LS Mean - Normal Renal Function: matched participants with normal renal function (eGFR >=90); for AUClast, Geometric LS Mean - Severe Renal Impairment / Cmax, Geometric LS Mean - Severe Renal Impairment: participants with severe renal impairment or ESRD (eGFR <30 mL/min/1.73 m^2)

With `C=C(C)[C@@H]1CCC(CO)=C[C@H]1c1c(O)cc(CCCCC)cc1O` [7-OH-CBD] the “AUClast, Geometric LS Mean - Normal Renal Function” value (“AUClast … - Normal Renal Function” below) was 1.66 ng·h/mL, the “Cmax, Geometric LS Mean - Normal Renal Function” value (shortened to “Cmax … - Normal Renal Function”) was 0.617 ng/mL and the “AUClast, Geometric LS Mean - Severe Renal Impairment” value (from here on “AUClast … - Severe Renal Impairment”) was 7.62 ng·h/mL.

In the case of `C=C(C)[C@@H]1CCC(C(=O)O)=C[C@H]1c1c(O)cc(CCCCC)cc1O` [7-COOH-CBD], the “AUClast … - Normal Renal Function” value is reported as 208 ng·h/mL and the “Cmax … - Normal Renal Function” value is reported as 10.4 ng/mL.

With `C=C(C)[C@@H]1CCC(C)=C[C@H]1c1c(O)cc(CCCCC)cc1O` [CBD, Cannabidiol, reference compound] the “AUClast … - Severe Renal Impairment” value was 4.82 ng·h/mL and the “Cmax, Geometric LS Mean - Severe Renal Impairment” value was 1.17 ng/mL.

For `CCCCCc1cc(O)c2c(c1)OC(C)(C)[C@@H]1CCC(CO)=C[C@@H]21` [11-OH-THC], the “AUClast … - Normal Renal Function” value was 15 ng·h/mL, the “Cmax … - Normal Renal Function” value was 3.42 ng/mL and the “AUClast … - Severe Renal Impairment” value was 47.9 ng·h/mL. For the same molecule, the “Cmax, Geometric LS Mean - Severe Renal Impairment” value was 7.28 ng/mL.

With `CCCCCc1cc(O)c2c(c1)OC(C)(C)[C@@H]1CCC(C)=C[C@@H]21` [THC, Δ-9-tetrahydrocannabinol, reference compound] the “AUClast … - Normal Renal Function” value was 6.23 ng·h/mL and the “Cmax … - Normal Renal Function” value was 2.79 ng/mL.

In the case of `CCCCCc1cc(O)c2c(c1)OC(C)(C)[C@@H]1CCC(C(=O)O)=C[C@@H]21` [11-COOH-THC], the “AUClast … - Normal Renal Function” value is reported as 265 ng·h/mL and the “Cmax … - Normal Renal Function” value is reported as 25.1 ng/mL.
